From ChEMBL document CHEMBL1127843, “2-(3,4-Dichlorophenyl)-N-methyl-N-[(1S)-1-(3-isothiocyanatophenyl)-2-(1-pyrrolidinyl)ethyl]acetamide: an opioid receptor affinity label that produces selective and long-lasting kappa antagonism in mice” (J Med Chem, 1994)

Legend:
Cavia porcellus = test: Compound was evaluated for In vivo antagonist activity towards guinea pig ileum(GPI); assay type: functional, organism-based
Mus musculus = test: Compound was evaluated for […] antagonist activity towards Mouse vas deferens(MVD); assay type: functional

CN(C(=O)Cc1ccc(Cl)c(Cl)c1)[C@H](CN1CCCC1)c1ccccc1
IC50 (Cavia porcellus): 0.199 nM
IC50 (Mus musculus): 1.6 nM
